{"source": "patent US20040175720A1", "about": "(NEW YORK UNIVERSITY, published 2004)", "target": "T1, NIF-1 (NRC Interacting Factor-1), full-length human, untagged (human, UniProt Q9H4Z2 1-1342, ^35S-L-methionine label in the in vitro binding assay)", "T1 construct": "Made by in vitro transcription/translation in reticulocyte lysate for the GST pull-down, and expressed from pEX-NIF-1 in HeLa cells for the reporter assay; also called ^35S-labeled NIF-1; ^35S-NIF-1", "T1 sequence": "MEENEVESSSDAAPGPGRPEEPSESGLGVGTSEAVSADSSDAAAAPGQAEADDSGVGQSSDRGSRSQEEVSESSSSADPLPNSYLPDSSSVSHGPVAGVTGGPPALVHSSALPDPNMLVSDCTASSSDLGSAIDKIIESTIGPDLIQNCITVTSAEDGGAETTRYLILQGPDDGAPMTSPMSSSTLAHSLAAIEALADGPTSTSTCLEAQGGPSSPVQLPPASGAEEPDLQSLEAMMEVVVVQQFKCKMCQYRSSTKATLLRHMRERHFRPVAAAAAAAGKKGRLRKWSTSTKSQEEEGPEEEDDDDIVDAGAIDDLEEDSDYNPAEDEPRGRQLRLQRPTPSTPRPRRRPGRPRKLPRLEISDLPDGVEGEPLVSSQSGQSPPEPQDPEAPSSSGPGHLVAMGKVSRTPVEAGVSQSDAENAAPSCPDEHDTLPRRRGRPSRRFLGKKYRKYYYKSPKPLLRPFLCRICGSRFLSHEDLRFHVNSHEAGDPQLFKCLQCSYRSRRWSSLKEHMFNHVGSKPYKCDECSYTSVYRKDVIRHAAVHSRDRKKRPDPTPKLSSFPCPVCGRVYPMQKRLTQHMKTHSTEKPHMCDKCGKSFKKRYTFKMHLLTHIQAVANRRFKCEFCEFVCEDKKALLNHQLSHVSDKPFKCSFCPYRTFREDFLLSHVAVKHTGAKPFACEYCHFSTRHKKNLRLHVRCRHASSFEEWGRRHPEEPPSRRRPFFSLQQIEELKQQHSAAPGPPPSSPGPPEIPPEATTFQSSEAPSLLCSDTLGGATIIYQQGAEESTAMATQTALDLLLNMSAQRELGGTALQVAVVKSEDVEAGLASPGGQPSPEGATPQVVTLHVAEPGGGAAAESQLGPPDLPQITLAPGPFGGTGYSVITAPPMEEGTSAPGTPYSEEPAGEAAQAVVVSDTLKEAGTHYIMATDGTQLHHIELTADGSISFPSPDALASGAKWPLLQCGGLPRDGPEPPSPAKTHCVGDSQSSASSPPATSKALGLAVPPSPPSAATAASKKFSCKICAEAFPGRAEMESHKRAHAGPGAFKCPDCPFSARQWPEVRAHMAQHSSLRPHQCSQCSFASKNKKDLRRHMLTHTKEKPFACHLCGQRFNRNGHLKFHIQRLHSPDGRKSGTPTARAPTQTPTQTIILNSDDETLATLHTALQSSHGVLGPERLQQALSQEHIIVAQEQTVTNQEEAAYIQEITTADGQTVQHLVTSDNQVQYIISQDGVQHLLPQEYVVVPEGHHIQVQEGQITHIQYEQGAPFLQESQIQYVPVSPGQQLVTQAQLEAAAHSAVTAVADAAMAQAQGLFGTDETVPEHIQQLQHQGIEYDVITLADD", "test": "GST pull-down of in vitro translated ^35S-NIF-1, SDS gel and autoradiography", "source_text": "GST-NRC.1a was expressed in SG1 1117 E. coli by induction with IPTG, purified, and immobilized to glutathione-agarose described previously (Hadzic et al., “A 10-Amino-Acid Sequence in the N-Terminal A/B Domain of Thyroid Hormone Receptor α is Essential for Transcriptional Activation and Interaction with the General Transcription Factor TFIIB,” Mol. Cell. Biol. 15:4507-4517 (1995), Hadzic et al., “A Novel Multifunctional Motif in the N-Terminal A/B Domain of T3Rα Modulates DNA-Binding and Receptor Dimerization,” J. Biol. Chem. 273:10270-10278 (1998), which are hereby incorporated by reference in their entirety). […] The samples were washed with the same incubation buffer and the bound ³⁵S-labeled protein analyzed by SDS-gel electrophoresis followed by autoradiography.\nTo document that this region of NRC binds to NIF-1 in vitro, this region of rat NRC was expressed as a GST-fusion in E. coli, and was purified with glutathione-agarose beads. ³⁵S-labeled NIF-1, synthesized by in vitro transcription/translation in reticulocyte lysates, and incubated with (˜200 ng) of purified GST or GST-NRC.1a at 4° C. for 30 min in binding buffer with mild shaking. The GST-glutathione-agarose beads were washed and the bound ³⁵S-labeled proteins analyzed by SDS-gel electrophoresis followed by autoradiography."}
{"binder": "GST (purified, on glutathione-agarose beads, control of the in vitro binding assay) (other, UniProt P08515 1-218, looked up) MSPILGYWKIKGLVQPTRLLLEYLEEKYEEHLYERDEGDKWRNKKFELGLEFPNLPYYIDGDVKLTQSMAIIRYIADKHNMLGGCPKERAEISMLEGAVLDIRYGVSRIAYSKDFETLKVDFLSKLPEMLKMFEDRLCHKTYLNGDHVTHPDFMLYDALDVVLYMDPMCLDAFPKLVCFKKRIEAIPQIDKYLKSSKYIAWPLQGWQATFGGGDHPPK", "values": [{"measurement": "binding result", "result": "no binding (tested: ~200 ng of purified GST)"}]}
